Measurements reported in US20230285371A1 (THE SECOND XIANGYA HOSPITAL OF CENTRAL SOUTH UNIVERSITY, priority 2020, published 2023).

System: Naive CD4+ T cells
Assay: Cytotoxicity to T cells: cell count after 48 hours
Format: cell-based, C57BL/6J mice
Settings: increasing concentrations

Substance: Sorafenib
- cytotoxicity to Naive CD4+ T cells: not cytotoxic
